Patent publication US5932619A, “Method for preventing sexually transmitted diseases” (Rush-Presbyterian, St. Luke's Medical Center, priority 1997, dated 1999)

Tested on: spermatozoa
Format: cell-based

O=C(O)C(OC(C(=O)O)c1ccccc1)c1ccccc1 (stereo not shown) [H2 SO4 -modified Mandelic Acid, 2,2'-diphenyl-2,2'-oxy-di-acetic acid]
cytotoxic activity towards spermatozoa: no cytotoxic activity
